Read-outs that look alike come from different tables or passages of the source.
Tests used:
[1] = test system: Bacillus globigii vegetative cells; conditions: tryptic soy broth
Bacillus globigii spores = conditions: tryptic soy broth
[2] = molecular target: acetylcholinesterase (AChE) (Homo sapiens, UniProt P22303); test: Ellman's acetylcholinesterase assay, impact of test materials on AChE; conditions: for direct impact on the Ellman's assay: preliminary studies
[3] = DFP testing, Ellman's assay; conditions: initial studies
bacteria = test: Exposure of bacteria to varying levels of BAC alone
[4] = concentration not printed, listed as Benzalkonium chloride

Amino acid sequences for entries named in this document (tags omitted). Residues count along the entry.
UniProt P22303, 32-614 limits assumed: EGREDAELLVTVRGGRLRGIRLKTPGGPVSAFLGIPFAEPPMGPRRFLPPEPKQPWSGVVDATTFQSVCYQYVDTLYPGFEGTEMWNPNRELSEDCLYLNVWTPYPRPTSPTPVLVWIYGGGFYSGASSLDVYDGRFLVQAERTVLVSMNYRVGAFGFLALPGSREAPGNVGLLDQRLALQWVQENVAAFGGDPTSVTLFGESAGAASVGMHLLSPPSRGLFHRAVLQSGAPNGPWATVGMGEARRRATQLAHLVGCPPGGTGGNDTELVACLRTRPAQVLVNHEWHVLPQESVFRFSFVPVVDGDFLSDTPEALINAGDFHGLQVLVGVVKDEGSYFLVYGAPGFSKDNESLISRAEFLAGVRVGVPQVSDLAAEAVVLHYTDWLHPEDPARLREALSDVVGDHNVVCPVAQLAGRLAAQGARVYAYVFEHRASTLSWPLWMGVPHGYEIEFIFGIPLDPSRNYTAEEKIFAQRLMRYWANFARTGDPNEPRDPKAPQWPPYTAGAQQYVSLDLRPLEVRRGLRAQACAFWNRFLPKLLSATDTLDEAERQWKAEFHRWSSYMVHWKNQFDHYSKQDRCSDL

Compound	RESULT (Cells) ([1]; concentration not printed)	RESULT (Spores) (Bacillus globigii spores; concentration not printed)	direct impact on the Ellman's assay [2]	inhibition of the chemical agent DFP [3]	further results
[H]/N=C(/N)N[C@H]1[C@H](O)[C@@H](O)[C@H](O[C@@H]2O[C@@H](C)[C@](O)(C=O)[C@H]2O[C@@H]2O[C@@H](CO)[C@H](O)[C@@H](O)[C@@H]2NC)[C@@H](N/C(N)=N\[H])[C@@H]1O	No effect observed	Reduced spore germination			
O=C(O)CN(CCN(CC(=O)O)CC(=O)O)CC(=O)O			do not directly impact the assay		RESULT (Cells) ([1]; 270 mM): No effect observed; RESULT (Spores) (Bacillus globigii spores; 270 mM): No change observed
benzalkonium chloride	highly bacteriocidal	no effect on spore germination		do not inhibit the chemical agent DFP	RESULT (Cells) [1, 4]: Bacteriocidal to 10^8; RESULT (Spores) (Bacillus globigii spores; [4]): No change observed; activity against bacteria (bacteria; high levels): bacteriocidal activity; activity against bacteria (bacteria; lower levels): bacteriostatic activity
tetrakishydroxymethyl phosphonium sulfate	bacteriocidal effect on cells	no spore germination	reacts directly with the colorimetric reagent	do not inhibit the chemical agent DFP	RESULT (Cells) ([1]; 7500 ppm): Bacteriocidal; RESULT (Spores) (Bacillus globigii spores; 7500 ppm): No spore germination observed; interference with the Ellman's assay ([2]; blended with other biocides): did not interfere with the Ellman's assay
Oc1cc(Cl)ccc1Oc1ccc(Cl)cc1Cl	bacteriocidal effect on cells	no spore germination	do not directly impact the assay	do not inhibit the chemical agent DFP	RESULT (Cells) ([1]; 5000 ppm): Bacteriocidal; RESULT (Spores) (Bacillus globigii spores; 5000 ppm): No spore germination observed
urea			do not directly impact the assay		RESULT (Cells) ([1]; 1.7M): No effect observed; RESULT (Spores) (Bacillus globigii spores; 1.7M): Slight growth rate reduction

From patent publication US7070773B2, “Chemical and/or biological decontamination system” (dated 2006)
